In patent US20240166598A1, “COMPOUNDS, COMPOSITIONS, AND METHODS OF USING THE SAME” (priority 2021, published 2024):

How the values were obtained:
SARS CoV-2 PLpro [1] = biological target: T1, SARS CoV-2 PLpro (Severe acute respiratory syndrome coronavirus 2 (2019-nCoV) (SARS-CoV-2), UniProt P0DTD1); experiment: biochemical; conditions: FRET Enzymatic assay IC50
SARS CoV-2 PLpro [2] = biological target: T1, SARS CoV-2 PLpro; experiment: cell-based; conditions: FlipGFP-PLpro assay EC50
SARS CoV-2 PLpro [3] = biological target: T1, SARS CoV-2 PLpro; experiment: biochemical
SARS CoV-2 PLpro [4] = biological target: T1, SARS CoV-2 PLpro; experiment: biochemical; remark: listed apart in the source
SARS-CoV-2 USA/WA1/2020 = type: cell-based

Compound: Cc1ccc(OC2CCNCC2)cc1C(=O)N[C@H](C)c1cccc(-c2ccc(CNC3CCCC3)s2)c1
- IC50 (SARS CoV-2 PLpro [1]): 1770 ± 200 nM
- EC50 (SARS CoV-2 PLpro [2]): > 60000 nM

Compound: CC(=O)Nc1ccc(C)c(C(=O)N[C@H](C)c2cccc(-c3ccc(CNC4CCCC4)s3)c2)c1
- IC50 (SARS CoV-2 PLpro [3]; Enzymatic assay IC50): 1790 nM

Compound: Cc1ccc(NC2CNC2)cc1C(=O)N[C@H](C)c1cccc(-c2ncc(CNC3CCCC3)s2)c1
- IC50 (SARS CoV-2 PLpro [3]; Enzymatic assay IC50): 1560 nM

Compound: Cc1ccc(NC2CNC2)cc1C(=O)N[C@H](C)c1cccc(-c2cc(C)c(CN[C@H]3CC[C@@H](O)C3)s2)c1
- IC50 (SARS CoV-2 PLpro [3]; Enzymatic assay IC50): 328 nM

Compound: Cc1ccc(NC2CNC2)cc1C(=O)N[C@H](C)c1cccc(-c2cc3sccc3s2)c1
- IC50 (SARS CoV-2 PLpro [3]; Enzymatic assay IC50): 824 nM

Compound: Cc1ccc(NC2CNC2)cc1C(=O)N[C@H](C)c1cccc(-c2ccc(CN[C@H]3CC[C@@H](C(=O)O)C3)s2)c1 [Example 157, (1R,3S)-3-(((5-(3-((R)-1-(5-(azetidin-3-ylamino)-2-methylbenzamido)ethyl)phenyl)thiophen-2-yl)methyl)amino)cyclopentane-1-carboxylic acid]
- IC50 (SARS CoV-2 PLpro [1]): 600 nM
- EC50 (SARS CoV-2 PLpro [2]): > 60000 nM

Compound: Cc1ccc(NC2CNC2)cc1C(=O)N[C@H](C)c1cccc(-c2ccc(CNC3CCCC3)s2)c1 [Example 71, (R)-5-(azetidin-3-ylamino)-N-(1-(3-(5-((cyclopentylamino)methyl)thiophen-2-yl)phenyl)ethyl)-2-methylbenzamide]
- Kd (SARS CoV-2 PLpro [4]; SPR binding assay KD): 110 nM

Compound: Cc1ccc(OC2CNC2)cc1C(=O)N[C@H](C)c1cccc(-c2ccc(CNC3CCCC3)o2)c1
- IC50 (SARS CoV-2 PLpro [1]): 3490 ± 350 nM
- EC50 (SARS CoV-2 PLpro [2]): > 20000 nM

Compound: Cc1ccc(NC2CNC2)cc1C(=O)N[C@H](C)c1cccc(-c2ccc(C#N)s2)c1
- IC50 (SARS CoV-2 PLpro [3]; Enzymatic assay IC50): 5530 nM

Compound: Cc1ccc(OC2CNC2)cc1C(=O)N[C@H](C)c1cccc(-c2ccc(CN3C(=O)[C@@H]4CC[C@H]3C4)s2)c1
- IC50 (SARS CoV-2 PLpro [1]): 1910 ± 110 nM
- EC50 (SARS CoV-2 PLpro [2]): > 10000 nM

Compound: Cc1ccc(N)cc1C(=O)N[C@H](C)c1cccc(-c2ccc(CN[C@H]3CC[C@@H](O)C3)s2)c1 [XR8-106]
- Kd (SARS CoV-2 PLpro [4]; KD): 2200 nM
- IC50 (SARS CoV-2 PLpro [3]; IC50): 1400 nM

Compound: Cc1ccc(NC2CNC2)cc1C(=O)N[C@H](C)c1cccc(-c2ccc(CNC3CCCC3)s2)c1 [XR8-23]
- Kd (SARS CoV-2 PLpro [4]; KD1): 259 nM
- Kd (SARS CoV-2 PLpro [4]; KD2): 277 nM
- Kd (SARS CoV-2 PLpro [4]; KD3): 196 nM
- Kd (SARS CoV-2 PLpro [4]; KD4): 209 nM
- effect of treatment on viral RNA versus vehicle control (SARS-CoV-2 USA/WA1/2020): significantly different from vehicle control

Compound: Cc1ccc(NC2CNC2)cc1C(=O)N[C@H](C)c1cccc(-c2ccc(Cl)s2)c1
- IC50 (SARS CoV-2 PLpro [3]; Enzymatic assay IC50): 1510 nM

Compound: Cc1csc(-c2cccc([C@@H](C)NC(=O)c3cc(NC4CNC4)ccc3C)c2)c1
- IC50 (SARS CoV-2 PLpro [3]; Enzymatic assay IC50): 1930 nM

Compound: Cc1ccc(OC2CNC2)cc1C(=O)N[C@H](C)c1cccc(-c2ccc(CN[C@H]3CC[C@@H](C(=O)O)C3)s2)c1
- IC50 (SARS CoV-2 PLpro [1]): 580 ± 70 nM
- EC50 (SARS CoV-2 PLpro [2]): > 60000 nM

Compound: Cc1ccc(NC2CNC2)cc1C(=O)N[C@H](C)c1cccc(-c2cc(C)c(CNC3CCCC3)s2)c1
- IC50 (SARS CoV-2 PLpro [3]; Enzymatic assay IC50): 652 nM

Compound: Cc1ccc(N)cc1C(=O)N[C@H](C)c1cccc(-c2ccc(CNC3CCCC3)s2)c1
- IC50 (SARS CoV-2 PLpro [3]; Enzymatic assay IC50): 1390 nM

Compound: Cc1ccc(NC2CNC2)cc1C(=O)N[C@H](C)c1cccc(-c2ccc(-c3ccccc3)s2)c1
- IC50 (SARS CoV-2 PLpro [3]; Enzymatic assay IC50): 4760 nM

Compound: Cc1ccc(N)cc1C(=O)N[C@H](C)c1cccc(-c2ccc(CN3CCCC3)s2)c1
- IC50 (SARS CoV-2 PLpro [3]; Enzymatic assay IC50): 1690 nM

Compound: CC(=O)Nc1ccc(C)c(C(=O)N[C@H](C)c2cccc(-c3ccc(CN4CCCC4)s3)c2)c1
- IC50 (SARS CoV-2 PLpro [3]; Enzymatic assay IC50): 2420 nM

Compound: Cc1ccc(NC2CNC2)cc1C(=O)N[C@H](C)c1cccc(-c2cc(C)c(CN3CCCC3)s2)c1
- IC50 (SARS CoV-2 PLpro [3]; Enzymatic assay IC50): 918 nM

Compound: Cc1ccc(NC2CNC2)cc1C(=O)N[C@H](C)c1cccc(-c2cc3ccccc3s2)c1
- IC50 (SARS CoV-2 PLpro [3]; Enzymatic assay IC50): 1130 nM

Compound: Cc1ccc(NC2CNC2)cc1C(=O)N[C@H](C)c1cccc(-c2ccc(CN[C@H]3CC[C@@H](C(=O)OC[C@H]4O[C@@H](n5ccc(NO)nc5=O)[C@H](O)[C@@H]4O)C3)s2)c1
- IC50 (SARS CoV-2 PLpro [3]; Enzymatic assay IC50): 627 nM

Compound: Cc1ccc(NC2CNC2)cc1C(=O)N[C@H](C)c1cccc(-c2ccc(C(F)(F)F)s2)c1
- IC50 (SARS CoV-2 PLpro [3]; Enzymatic assay IC50): 6120 nM

Compound: Cc1ccc(NC2CNC2)cc1C(=O)N[C@H](C)c1cccc(-c2ccc(-c3cccs3)s2)c1
- IC50 (SARS CoV-2 PLpro [3]; Enzymatic assay IC50): 4430 nM

Compound: Cc1ccc(N)cc1C(=O)N[C@H](C)c1cccc(-c2ccc(CN[C@H]3CC[C@@H](O)C3)s2)c1 [drawing 513]
- IC50 (SARS CoV-2 PLpro [3]; Enzymatic assay IC50): 597 nM

Compound: Cc1ccc(OC2CNC2)cc1C(=O)N[C@H](C)c1cccc(-c2ccc(CN[C@H]3CC[C@@H](C(=O)OC[C@H]4O[C@@H](n5ccc(N)nc5=O)[C@H](O)[C@@H]4O)C3)s2)c1
- IC50 (SARS CoV-2 PLpro [1]): 800 ± 80 nM
- EC50 (SARS CoV-2 PLpro [2]): > 20000 nM
